Amino acid sequences for entries named in this document (tags omitted). Residues count along the entry.
UniProt Q96GG9, 58-259: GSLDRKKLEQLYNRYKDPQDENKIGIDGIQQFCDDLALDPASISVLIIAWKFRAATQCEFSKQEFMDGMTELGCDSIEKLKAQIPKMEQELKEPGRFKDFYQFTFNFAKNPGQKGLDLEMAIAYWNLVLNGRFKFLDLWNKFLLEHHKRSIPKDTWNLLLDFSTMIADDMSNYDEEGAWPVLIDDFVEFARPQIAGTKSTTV

In US12012467B2, “Small molecule DCN1 inhibitors and therapeutic methods using the same” (THE REGENTS OF THE UNIVERSITY OF MICHIGAN, priority 2017, dated 2024):

Biological target: DCN1 (Homo sapiens (Human), UniProt Q96GG9)
Test: Competitive FP binding assay
Settings: read-out: Binding affinity to DCN1 (IC50 (nM))
Experimental: Competitive FP Binding Assay
The Fluorescence Polarization (FP) competitive binding assays were performed to accurately determine the binding affinities of our DCN1 inhibitors. […] Serial dilutions of proteins were mixed with 46 to a final volume of 200 μl in the assay buffer (100 mM phosphate buffer, pH=6.5, with 0.02% Tween-20 and 2% DMSO). Final probe concentration was 5 nM for both assays. Plates were incubated at room temperature for 30 minutes with gentle shaking to assure equilibrium.
Pure proteins were derived from the same expression and purification protocols. Plasmids were transformed into Rosetta2 cells, the cells were grown in Terrific Broth at 37° C. to an O.D.600>1.0 and induced with 0.4 mM Isopropyl (3-D-1-thiogalactopyranoside overnight at 20° C. The pelleted cells were resuspended in lysis buffer containing 25 mM Tris-HCl, pH 7.5, 200 mM NaCl and protease inhibitors, sonicated and centrifuged at 34,000×g for 45 minutes to remove debris. Cleared lysate was incubated with Ni-NTA resin (Qiagen) prewashed with lysis buffer, for 1 hr at 4° C. The matrix was loaded into a column then washed with 25 mM Tris-HCl, pH 7.5, 200 mM NaCl and 10 mM imidazole. Protein was eluted with 25 mM Tris-HCl, pH 7.5, 200 mM NaCl and 300 mM imidazole, concentrated and applied to a Superdex 75 (GE Healthcare) column pre-equilibrated with 25 mM Tris pH 7.5, 200 mM NaCl and 1 mM DTT. […]

- IC50: 29.6 nM
SMILES: CCC(=O)N[C@@H](Cc1nc2ccc(C(C)C)cc2s1)C(=O)N[C@H](CNC(=O)C1CCN(CCOCCOCCOCCNC(=O)CCCC[C@@H]2SC[C@@H]3NC(=O)N[C@@H]32)CC1)C1CCCCC1 [Example 126, N—((S)-2-cyclohexyl-2-((S)-3-(6-isopropylbenzo[d]thiazol-2-yl)-2-propionamidopropanamido)ethyl)-1-(13-oxo-17-((3aS,4S,6aR)-2-oxohexahydro-1H-thieno [3,4-d]imidazol-4-yl)-3,6,9-trioxa-12-azaheptadecyl)piperidine-4-carboxamide]
